Measured values taken from the NIST ThermoML archive (doi:10.1016/j.jct.2014.07.003).
± gives the expanded uncertainty stated by the source.

Assay: mn = molality of the nth substance listed, in mol/kg
Details: 99 kPa, Liquid, Alternating current cell with electrodes, m1 = 0.01

CCC[N+](CCC)(CCC)CCC.[Br-] [tetrapropylammonium bromide] + O
Details	electrical conductivity [S/m]
288.15 K	0.117 ± 0.0049
293.15 K	0.0912 ± 0.0038
298.15 K	0.0847 ± 0.005
303.15 K	0.0839 ± 0.0052
308.15 K	0.0868 ± 0.0061
313.15 K	0.0882 ± 0.0057
318.15 K	0.0911 ± 0.0061
